# Test results taken from patent publication US12286657B2, “Methods and compositions” (United Kingdom Research and Innovation, priority 2018, dated 2025).
# The chains behind the UniProt entries cited, without tags or fusion partners.
# UniProt Q6WRH6, whole entry Y271C/N311Q/Y349F/V366C, looked up: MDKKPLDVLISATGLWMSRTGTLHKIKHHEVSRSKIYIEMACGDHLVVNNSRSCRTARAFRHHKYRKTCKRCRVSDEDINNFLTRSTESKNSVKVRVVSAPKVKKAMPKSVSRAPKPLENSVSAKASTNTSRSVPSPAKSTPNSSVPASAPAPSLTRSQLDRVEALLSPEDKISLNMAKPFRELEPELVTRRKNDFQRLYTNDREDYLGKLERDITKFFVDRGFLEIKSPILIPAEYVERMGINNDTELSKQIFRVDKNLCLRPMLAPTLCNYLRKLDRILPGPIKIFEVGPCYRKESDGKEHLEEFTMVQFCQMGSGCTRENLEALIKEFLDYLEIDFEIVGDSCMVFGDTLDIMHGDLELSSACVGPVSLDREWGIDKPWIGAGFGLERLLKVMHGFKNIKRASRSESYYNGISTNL
# How the values were obtained:
# [1] = target: DAPRS/tRNACUA pair (Methanosarcina barkeri, UniProt Q6WRH6, N311Q/V366C/Y271C/Y349F); assay: phenotyping of DAPRS/tRNACUA pair with cat(112TAG) reporter on chloramphenicol; assay type: cell-based, E. coli; settings: in the presence of 6
# [2] = target: DAPRS/tRNAPylCUA pair (Methanosarcina barkeri, UniProt Q6WRH6, N311Q/V366C/Y271C/Y349F); assay: sfGFP(150TAG)His6 expression with DAPRS/tRNAPylCUA; assay type: cell-based, E. coli; settings: sfGFP(150TAG)His6, 1 mM amino acid, versus BocK with PylRS/tRNAPylCUA
smiles,measurement,setting,value
CC(SCCOC(=O)NC[C@H](N)C(=O)O)c1cc2c(cc1[N+](=O)[O-])OCO2 (mixture of isomers) [Compound 6],chloramphenicol resistance conferred by selected clone,[1],high levels of chloramphenicol resistance
same,yield of GFP incorporating the amino acid,[2],comparable
